# Assay results from patent US20250084183A1, “ENGINEERED COMPOSITIONS FOR BONE-TARGETED THERAPY” (William Marsh Rice University, priority 2021, published 2025).
# Experiments:
# [1] = system: MDA-MB-361 breast cancer cells; test: MDA-MB-361 bone metastasis xenograft model (para-tibial injection)
# [2] = Binding to bone cryosections (FITC anti-human IgG / xylenol orange); parameters: species or system C57BL/6 mice; details: 50 μg/mL, overnight incubation; xylenol orange (XO) labels bone
# Method: Binding to bone cryosections. […] After washing 3 times with PBS, specimens were incubated for 30 min at 37° C. with Xylenol Orange (XO) (stock: 2 mg/ml, dilute 1:500, dilute buffer: PBS pH 6.5). After three washes with PBS, specimens were stained with Hoechst 33342 (stock 10 mg/ml, dilute 1:2000) for 10 min. Slides were then washed with PBS, air dried, and sealed with PROLONG™ gold anti-fade mountant (from ThermoFisher).
# [3] = system: HER2-negative MDA-MB-468 cells; test: In vitro cytotoxicity (MTT) against MDA-MB-468; format: cell-based; details: same experimental conditions as SK-BR-3
# Method: (§1) BT474, and MDA-MB-468 cells at 2×10^3 cells/well into 96-well plates. […] 20 AL of 3-(4,5-dimethylthiazol-2-yl)-2,5-diphenyltetrazolium bromide (MTT) solution (5 mg/mL) was then added to each well and incubated for another 4 h. Medium was aspirated and 150 AL DMSO was added to each well. The absorbance at 565 nm was measured by microplate reader (Infinite M Plex by Tecan) to quantify living cells.
# SK-BR-3 cells = test: In vitro cytotoxicity (MTT) against SK-BR-3; format: cell-based
# Method: as §1
# MDA-MB-468 (HER2−) cells = test: Cell-surface binding to MDA-MB-468 cells (flow cytometry)
# Method: (§2) Flow cytometry. […] After washing away unbound antibodies, bound antibodies were detected using Fluorescein (FITC) AffiniPure Goat Anti-Human IgG (H+L) (code: 109-095-003, Jackson Immunology) for 30 min at 4° C. Fluorescence intensity was determined using a BD FACSVerse (BD Biosciences).
# SK-BR-3 (HER2+++) cells = test: Cell-surface binding to SK-BR-3 cells (flow cytometry)
# Method: as §2
# HA binding assay = details: for Percentage of the bound fraction: antibodies 1 mg/ml, 20 mg/ml hydroxyapatite, 37° C., 9 h, mean ± SEM
# MDA-MB-361 cells = test: Primary tumor model, MDA-MB-361 in mammary fat pads; format: in vivo, nude mice; details: 1 mg/kg
# [4] = ADC, in vitro binding assay, FIG. 50
# [5] = 1 mg/kg retro-orbital twice a week
# [6] = end of experiment, one-way ANOVA
substance,measurement,setting,value
Tras-CH1/CT-MMAE,metastatic growth in bone vs unmodified Tras-MMAE,[1]; ADC 0.5 mg/kg every week for two months,significant inhibition of metastatic growth in bone
same,bone volume/tissue volume ratio (BV/TV) vs PBS- and Tras-MMAE-treated groups,[1]; ADC 0.5 mg/kg weekly,higher
same,micro-CT: osteolytic bone destructions,[1]; ADC 0.5 mg/kg weekly,but not
same,trabecular bone thickness (Tb.Th) vs PBS- and Tras-MMAE-treated groups,[1]; ADC 0.5 mg/kg weekly,thicker
same,"toxicity, body weight during treatment","[1]; ADC 0.5 mg/kg weekly, FIG. 37I",no apparent toxicity
same,histology: intratibia tumor burden,"[1]; ADC 0.5 mg/kg weekly, FIG. 55",reduction of intratibia tumor burden
same,secondary metastases derived from bone lesions,"[1]; ADC 0.5 mg/kg weekly, FIGS. 37K, 56",significantly reduced the frequency and size of secondary metastases
same,anti-tumor activity,[1]; FIG. 35,better anti-tumor activity
same,FITC signal on non-decalcified bone sections,[2],correlated well with the XO signal
same,cytotoxicity against MDA-MB-468 cells,[3],no significant toxicity
same,EC50,SK-BR-3 cells,0.49 ± 0.3 nM
same,binding to HER2-negative MDA-MB-468 cells,MDA-MB-468 (HER2−) cells; [4],but not
same,binding to HER2-positive SK-BR-3 cells,SK-BR-3 (HER2+++) cells; [4],high binding affinity
"Tras-LC/CT: trastuzumab with two L-Asp6 peptides, light chain and C-terminus; SEQ ID NOs: 11-12",Percentage of the bound fraction,HA binding assay,59.7 ± 4.4%
same,MFI increase (fold),"MDA-MB-468 (HER2−) cells; MDA-MB-468, Her2 expression 0, over PBS control",1.16 fold
same,MFI increase (fold),"SK-BR-3 (HER2+++) cells; SK-BR-3, Her2 expression 3+, over PBS control",57.75 fold
Tras-MMAE [reference compound],micro-CT: osteolytic bone destructions,[1]; ADC 0.5 mg/kg weekly,extensive osteolytic bone destructions
same,cytotoxicity against MDA-MB-468 cells,[3],no significant toxicity
same,EC50,SK-BR-3 cells,0.18 nM
trastuzumab [reference compound],prolongation of median mouse survival,[1]; [5],9.7 days
same,tumor growth (BLI),[1]; [5],failed to control long-term tumor growth
same,increase in tumor size (BLI signal day 1 to 80),"[1]; 1 mg/kg twice a week, p<0.0001 Tras-CH1/CT vs Tras",1562.7±801.6
same,histological analysis of bone sections (H&E),[1]; FIG. 3L,invasion of tumor cells into the bone matrix and into the adjacent tissue
same,"Osteoclast number, significance vs Control","[1]; TRAP-stained tibia sections, end of experiment, one-way ANOVA",**** (**** P < 0.0001)
same,"Serum Calcium, significance vs Control",[1]; [6],ns (ns represents P > 0.05)
same,"Serum TRACP 5b, significance vs Control",[1]; [6],ns (ns represents P > 0.05)
same,"Survival, significance vs Control","[1]; endpoint BLI intensity over 10^7, log-rank test",ns (ns represents P > 0.05)
same,"Trabecular bone parameters BMD, significance vs Control","[1]; microCT, one-way ANOVA, Tukey",ns (ns represents P > 0.05)
same,"Trabecular bone parameters BS/BV, significance vs Control","[1]; microCT, one-way ANOVA, Tukey",ns (ns represents P > 0.05)
same,"Trabecular bone parameters BV, significance vs Control","[1]; microCT, one-way ANOVA, Tukey",ns (ns represents P > 0.05)
same,"Trabecular bone parameters BV/TV, significance vs Control","[1]; microCT, one-way ANOVA, Tukey",ns (ns represents P > 0.05)
same,"Trabecular bone parameters Tb. Th, significance vs Control","[1]; microCT, one-way ANOVA, Tukey",ns (ns represents P > 0.05)
same,micro CT: osteolytic bone destruction / bone loss,"[1]; tibiae, day 81, 1 mg/kg",extensive osteolytic bone destructions
same,"BLI Progression, significance vs Control","[1]; whole body BLI over the course of the experiment, two-way ANOVA",** (** P < 0.01)
same,Percentage of the bound fraction,HA binding assay,23.9 ± 4.7%
same,"affinity for HA (binding kinetics, FIG. 2D)",HA binding assay; trastuzumab series,only slight affinity for HA
same,FITC signal on non-decalcified bone sections,[2],no fluorescence
same,tumor growth in the mammary fat pads,MDA-MB-361 cells,significantly decreased the tumor growth
